# Measurements: patent publication US20060084688A1, “Aromatic sulfone hydroxamic acid metalloprotease inhibitor” (priority 1997, published 2006)
# Protein sequences, listed by entry. Tags and fused reporters are not part of them. Residues count along the entry.
# UniProt P08253, 110-660 limits assumed: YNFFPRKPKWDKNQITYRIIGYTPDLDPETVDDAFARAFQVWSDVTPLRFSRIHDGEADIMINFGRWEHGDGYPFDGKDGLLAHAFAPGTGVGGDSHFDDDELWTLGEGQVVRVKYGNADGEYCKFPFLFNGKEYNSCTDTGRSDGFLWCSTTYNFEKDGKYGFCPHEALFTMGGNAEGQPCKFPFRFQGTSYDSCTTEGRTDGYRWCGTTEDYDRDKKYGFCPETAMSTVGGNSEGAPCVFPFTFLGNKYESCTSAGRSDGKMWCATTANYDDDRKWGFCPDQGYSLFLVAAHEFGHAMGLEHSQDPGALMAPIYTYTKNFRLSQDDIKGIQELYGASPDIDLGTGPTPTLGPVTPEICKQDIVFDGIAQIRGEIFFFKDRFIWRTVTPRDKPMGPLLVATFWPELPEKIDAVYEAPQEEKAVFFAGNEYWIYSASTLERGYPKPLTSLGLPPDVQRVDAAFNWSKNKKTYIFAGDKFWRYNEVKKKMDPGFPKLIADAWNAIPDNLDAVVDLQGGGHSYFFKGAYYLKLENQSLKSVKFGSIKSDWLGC
# UniProt P03956, 100-469 limits assumed: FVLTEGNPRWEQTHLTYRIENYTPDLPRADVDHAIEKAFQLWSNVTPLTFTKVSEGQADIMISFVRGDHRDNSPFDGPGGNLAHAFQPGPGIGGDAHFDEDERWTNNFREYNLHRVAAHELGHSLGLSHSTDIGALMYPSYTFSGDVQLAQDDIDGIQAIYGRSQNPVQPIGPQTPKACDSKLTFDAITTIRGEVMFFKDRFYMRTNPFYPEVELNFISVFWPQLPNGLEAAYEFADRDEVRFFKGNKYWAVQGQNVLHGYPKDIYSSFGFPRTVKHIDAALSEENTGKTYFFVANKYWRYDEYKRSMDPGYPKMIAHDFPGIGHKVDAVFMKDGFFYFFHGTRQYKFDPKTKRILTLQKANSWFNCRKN
# Legend:
# [1] = molecular target: recombinant human MMP-2 (Homo sapiens, UniProt P08253); settings: read-out: MMP-2 IC50, Inhibition Table B
# [2] = molecular target: recombinant human MMP-13 (Homo sapiens, UniProt P45452); test: In vitro metalloprotease inhibition, fluorogenic MCA peptide substrate, MMP-13; format: biochemical; settings: read-out: MMP-13 IC50, Inhibition Table B
# [3] = molecular target: recombinant human MMP-1 (Homo sapiens, UniProt P03956); settings: read-out: MMP-1 IC50, Inhibition Table B
Compound,pIC50 ([1]; tested form: TFA),pIC50 ([2]; tested form: TFA),pIC50 ([3]; tested form: TFA),pIC50 [1],pIC50 [2],pIC50 [3]
COC(=O)[C@H](Cc1cnc[nH]1)NC(=O)C1CCN(c2ccc(S(=O)(=O)C3(C(=O)NO)CCOCC3)cc2)CC1,6.35,7.40,< 5.00,–,–,–
O=C(N1CCOCC1)N1CCN(c2ccc(S(=O)(=O)C3(C(=O)NO)CCOCC3)cc2)CC1,7.51,7.55,< 5.00,–,–,–
Cc1ccc(-c2ccc(S(=O)(=O)C3(C(=O)NO)CCOCC3)cc2)cc1,–,–,–,> 9.00,> 9.00,6.22
COC(=O)[C@H](Cc1cnc[nH]1)NC(=O)C1CCCN(c2ccc(S(=O)(=O)C3(C(=O)NO)CCOCC3)cc2)C1 (stereo partly drawn),< 7.00,< 7.00,< 5.00,–,–,–
O=C(NO)C1(S(=O)(=O)c2ccc(-c3ccc(F)cc3)cc2)CCOCC1,–,–,–,> 9.00,> 9.00,6.84

# pIC50: −log10 of the molar value. Read-outs that look alike come from different tables or passages of the source.
